The source made the active and inactive calls. The calls are words filed in the database; no cut-off is given here.
Assays:
[1] = molecular target: Mu-type opioid receptor (Mus musculus) (UniProt P42866); assay: Agonist activity at mouse mu opioid receptor expressed in CHO cells cotransfected with Galphaqi5 assessed as intracellular calcium level preincubated for 60 mins in Fluo4AM solution followed by compound addition by Fluo4AM dye based assay; format: functional, cell-based
[2] = molecular target: Mu-type opioid receptor (Mus musculus) (UniProt P42866); assay: Agonist activity at mouse mu opioid receptor expressed in CHO cells assessed as inhibition of forskolin-induced cAMP formation incubated for 8 min followed by forskolin stimulation by ELISA; format: functional, cell-based
Summary of the method: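 mMOR-CHO cells grown to confluency, pre-incubated 30 min at 37°C with 1 mM IBMX, 200 μM Ro 20-1724, bovine serum albumin and 20 mM HEPES (pH 7.2-7.5). Ligand then added with 10 μM forskolin for 8 min at 37°C. Media removed, cells rinsed with PBS, cAMP measured by ELISA. DMEM/F12 used as solvent throughout.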

The chains behind the UniProt entries cited, without tags or fusion partners.
UniProt P42866, whole entry: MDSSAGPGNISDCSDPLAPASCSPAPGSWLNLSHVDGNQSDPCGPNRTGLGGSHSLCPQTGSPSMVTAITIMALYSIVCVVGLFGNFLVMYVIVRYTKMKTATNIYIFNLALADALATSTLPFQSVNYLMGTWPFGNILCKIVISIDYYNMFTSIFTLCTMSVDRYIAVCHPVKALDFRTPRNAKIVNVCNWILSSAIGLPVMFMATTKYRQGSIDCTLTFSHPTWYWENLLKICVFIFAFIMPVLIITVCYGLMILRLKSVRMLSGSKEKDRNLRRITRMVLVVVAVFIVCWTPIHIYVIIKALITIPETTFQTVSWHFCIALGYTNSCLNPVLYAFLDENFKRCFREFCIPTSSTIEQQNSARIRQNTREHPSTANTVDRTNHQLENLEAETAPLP

[3] = molecular target: Mu-type opioid receptor (Mus musculus) (UniProt P42866); assay: Agonist activity at recombinant mouse mu opioid receptor expressed in CHO cell membrane assessed as [35]-GTPgammaS binding incubated for […] by scintillation counting method relative to DAMGO

Q: For `Cl.O=C(N[C@H]1CC[C@@]2(O)[C@H]3Cc4ccc(O)c5c4[C@@]2(CCN3CC2CC2)[C@H]1O5)c1cccc2ccsc12`, which Activity [1] is on record?
A: The Activity was “inactive”.

Q: And the Emax [2]?
A: Its Emax is “inactive”.

Q: And the Emax [3]?
A: Its Emax is 10.6%.

Q: How did the Emax [3] turn out when `Cl.O=C(N[C@@H]1CC[C@@]2(O)[C@H]3Cc4ccc(O)c5c4[C@@]2(CCN3CC2CC2)[C@H]1O5)c1cccc2ccsc12` was run?
A: Its Emax is 13.5%.

From ChEMBL document CHEMBL4321862, “Application of Bivalent Bioisostere Concept on Design and Discovery of Potent Opioid Receptor Modulators” (J Med Chem, 2019)
